Literature values as cited in patent US20220226508A1, “METHODS AND COMPOSITIONS FOR TREATING EPILEPSY” (THE REGENTS OF THE UNIVERSITY OF CALIFORNIA, priority 2019, published 2022).

By UniProt entry, the sequences of proteins in these tests, tags left out. Residues count along the entry.
UniProt P41595, whole entry: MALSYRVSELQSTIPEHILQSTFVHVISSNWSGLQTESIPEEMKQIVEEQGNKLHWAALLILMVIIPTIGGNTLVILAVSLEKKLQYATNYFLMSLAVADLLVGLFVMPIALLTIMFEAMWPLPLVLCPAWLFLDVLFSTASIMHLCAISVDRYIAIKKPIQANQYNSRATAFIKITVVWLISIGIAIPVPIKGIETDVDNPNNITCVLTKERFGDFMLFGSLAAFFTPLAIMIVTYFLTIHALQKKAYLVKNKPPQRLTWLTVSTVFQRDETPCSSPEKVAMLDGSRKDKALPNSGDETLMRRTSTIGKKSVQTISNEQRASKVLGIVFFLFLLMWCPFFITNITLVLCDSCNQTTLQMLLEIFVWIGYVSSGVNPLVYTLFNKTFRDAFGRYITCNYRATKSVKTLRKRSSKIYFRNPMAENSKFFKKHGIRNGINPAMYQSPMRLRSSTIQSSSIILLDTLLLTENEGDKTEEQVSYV
UniProt P28335, 33-458: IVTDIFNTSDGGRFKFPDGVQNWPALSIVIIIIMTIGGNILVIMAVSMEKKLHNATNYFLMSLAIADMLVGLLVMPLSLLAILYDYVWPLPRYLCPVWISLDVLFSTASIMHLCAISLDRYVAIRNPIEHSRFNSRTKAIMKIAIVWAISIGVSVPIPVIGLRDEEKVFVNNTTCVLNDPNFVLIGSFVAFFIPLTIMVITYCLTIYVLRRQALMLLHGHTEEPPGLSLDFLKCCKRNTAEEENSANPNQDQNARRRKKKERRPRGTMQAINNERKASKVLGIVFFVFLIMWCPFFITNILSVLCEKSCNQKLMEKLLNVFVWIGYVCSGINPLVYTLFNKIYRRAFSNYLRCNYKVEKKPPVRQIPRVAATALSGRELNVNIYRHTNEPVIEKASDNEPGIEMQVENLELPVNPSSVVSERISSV

Key:
human 5-HT2BR = molecular target: T1, human 5-HT2BR (Homo sapiens, UniProt P41595)
T1 construct: expressed in transfected cells

human 5-HT2CR = molecular target: T2, human 5-HT2CR (Homo sapiens, UniProt P28335); settings: known drugs and commercial compounds; read-out: binding affinity (Ki) 5-HT2C / 5-HT2CR; cited from earlier work
T2 construct: expressed in transfected cells

## CC(N)Cc1c[nH]c2ccc(OCc3cccs3)cc12 (stereo not drawn) [reference compound]
Human 5-HT2BR; read-out: binding affinity (Ki) 5-HT2B / 5-HT2BR; known drugs and commercial compounds; cited from earlier work
  Ki: 3.2 nM

## Cl.Clc1cccc(N2CCNCC2)c1
Human 5-HT2BR; known drugs and commercial compounds; read-out: binding affinity (Ki) 5-HT2B / 5-HT2BR; cited from earlier work
  Ki: 30.3 nM
Human 5-HT2CR
  Ki: 13 nM

Where two headings read alike, the source gives them in different places.
